Assay results published in PMC6724135, “The Biosynthetic Pathway of Major Avenanthramides in Oat” (Metabolites, 2019).

By UniProt entry, the sequences of proteins in these tests, tags left out. Where a name states a change or a piece, a line headed by the entry shows the natural chain unless it says otherwise.
UniProt A0A4Y5UJ70: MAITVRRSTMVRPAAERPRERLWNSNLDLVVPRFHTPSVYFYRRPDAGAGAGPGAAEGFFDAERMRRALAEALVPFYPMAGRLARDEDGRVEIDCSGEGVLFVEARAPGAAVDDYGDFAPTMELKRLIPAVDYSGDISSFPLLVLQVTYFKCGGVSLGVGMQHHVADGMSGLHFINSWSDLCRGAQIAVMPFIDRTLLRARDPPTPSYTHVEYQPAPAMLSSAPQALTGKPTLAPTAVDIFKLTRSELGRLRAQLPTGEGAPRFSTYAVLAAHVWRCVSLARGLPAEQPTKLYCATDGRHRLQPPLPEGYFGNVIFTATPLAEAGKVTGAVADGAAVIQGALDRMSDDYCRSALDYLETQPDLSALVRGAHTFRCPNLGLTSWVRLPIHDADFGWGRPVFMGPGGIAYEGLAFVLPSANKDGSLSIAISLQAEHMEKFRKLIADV
UniProt Q7XXP3: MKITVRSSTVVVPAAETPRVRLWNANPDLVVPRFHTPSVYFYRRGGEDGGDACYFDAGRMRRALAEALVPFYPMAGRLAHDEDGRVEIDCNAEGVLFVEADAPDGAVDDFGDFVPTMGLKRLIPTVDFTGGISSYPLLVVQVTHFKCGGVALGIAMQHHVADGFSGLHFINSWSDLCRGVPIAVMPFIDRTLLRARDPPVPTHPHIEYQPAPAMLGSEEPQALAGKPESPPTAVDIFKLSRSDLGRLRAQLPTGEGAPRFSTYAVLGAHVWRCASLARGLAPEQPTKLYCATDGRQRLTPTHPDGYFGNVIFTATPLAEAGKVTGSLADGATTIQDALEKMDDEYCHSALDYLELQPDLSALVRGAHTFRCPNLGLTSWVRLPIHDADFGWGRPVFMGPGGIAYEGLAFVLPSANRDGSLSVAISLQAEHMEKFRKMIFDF

How the values were obtained:
AsHHT4 = molecular target: T1, AsHHT4 (Avena sativa, UniProt A0A4Y5UJ70); test: HPLC and MS of product Avn-A; conditions: with 5-hydroxyanthranilic acid, Tris-HCl pH 7.2, 30 °C
T1 construct: gene HHT4

AsHHT1 = molecular target: T2, AsHHT1 (Avena sativa, UniProt Q7XXP3); test: HPLC and MS of product Avn-A; conditions: with 5-hydroxyanthranilic acid, Tris-HCl pH 7.2, 30 °C
T2 construct: gene HHT1

With `CC(C)(COP(=O)(O)OP(=O)(O)OC[C@H]1O[C@@H](n2cnc3c(N)ncnc32)[C@H](O)[C@@H]1OP(=O)(O)O)[C@@H](O)C(=O)NCCC(=O)NCCSC(=O)/C=C/c1ccc(O)cc1` [p-coumaroyl-CoA] as the compound, how does the “HPLC and MS of product Avn-A” value (AsHHT4) read?
Its value is “Both purified enzymes could catalyze the condensation of 5-hydroxyanthranilic acid and p-coumaroyl-CoA”.

What about the “HPLC and MS of product Avn-A” value (AsHHT1) of the same compound?
Its value is “Both purified enzymes could catalyze the condensation of 5-hydroxyanthranilic acid and p-coumaroyl-CoA”.
